# Source: PubChem BioAssay AID588855 (National Center for Advancing Translational Sciences (NCATS), 2011)
# This is a selection; strong and weak results do not stand in their true shares. Records with an inconclusive call do not appear. Calls of active or inactive are those of the source. Calls come from the whole dose curve; as a rule, active = well fitted inhibition curve with a large enough effect; inconclusive = small, poorly fitted or top-dose-only effect; inactive = no such curve, though single readings can be large or run the other way.
# Test: qHTS for Inhibitors of TGF-b; note: nearly all actives have a fitted effect of over 65% in size
# Conditions: HepG2 CAGA-GFP TGF-b/SMAD3 reporter, GFP fluorescence, 18 h, TGF-beta stimulated, 500 pg/mL final; at 46.1 µM (top of the series)
# % is set by controls: 0 for no effect and ±100 for the full control effect.
row,Compound,"activity, negative = inhibition"
1,CCC(=O)N(c1ccccc1)C1(COC)CCN(CCn2nnn(CC)c2=O)CC1,inactive: 2.05%
2,CCC(=O)N(c1ccccc1)C1(COC)CCN(CCc2cccs2)CC1,inactive: 4.06%
